Measured values reported in patent US20230099031A1, “BIFUNCTIONAL AGENTS FOR PROTEIN RECRUITMENT AND/OR DEGRADATION” (Orionis Biosciences, Inc., priority 2019, published 2023).

system: IKZF1, ASS1 and SALL4; experiment: Recruitment assessment: recruitment of any tested substrate from among IKZF1, ASS1 and SALL4 (MAPPIT-like recruitment assays); type: cell-based; conditions: any tested substrate among IKZF1, ASS1, SALL4 at any tested concentration

SMILES | Recruitment Assessment
O=C1CCc2cc(C(=O)N3CCCc4ccccc43)cnc2N1 | FALSE
CC(=O)Nc1cccc2c1CN(C1CCC(=O)NC1=O)C2=O (stereo not drawn) | TRUE
O=C1CCC(N2C(=O)C3=C(CCC3)C2=O)C(=O)N1 (stereo not drawn) | FALSE
